{"sequences": {"note": "Chains of the proteins cited; added tags and fusions are not shown.", "UniProt Q15102, whole entry": "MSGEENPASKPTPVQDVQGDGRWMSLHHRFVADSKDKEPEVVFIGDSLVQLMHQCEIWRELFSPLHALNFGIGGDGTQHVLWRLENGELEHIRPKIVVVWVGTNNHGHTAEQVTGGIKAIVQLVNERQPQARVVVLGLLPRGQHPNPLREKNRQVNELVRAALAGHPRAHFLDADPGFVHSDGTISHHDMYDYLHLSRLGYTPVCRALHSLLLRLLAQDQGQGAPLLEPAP"}, "source": "PubChem BioAssay AID492972", "about": "(The Scripps Research Institute Molecular Screening Center, 2010)", "note": "This is a selection; strong and weak results do not stand in their true shares. Activity calls are given as the source filed them.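 How the source made its calls: active means inhibition above the screen-wide average of all tested compounds plus 3 SD (cut at about 25% in these data); inactive means the rest.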"}
{"target": "Platelet-activating factor acetylhydrolase IB subunit alpha1 (Homo sapiens) (UniProt Q15102)", "experiment": "PAFAH1B3 enzyme inhibitors, primary screen, biochemical, fluorescence polarization, human (AID 492972);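 further: 0% = enzyme with DMSO only and 100% = wells lacking PAFAH1B3 protein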", "details": "recombinant PAFAH1B3, FP-rhodamine probe, at 3.39 µM, active compounds read high"}
{"smiles": "CCOC(=O)c1ccc(NP(C)(=O)Oc2ccc(OC)cc2)cc1", "note": "(centres undefined)", "inhibition": "inactive: 10.2%"}
{"smiles": "CCOP(C)(=S)SCC(=O)NC(C)C(=O)O", "note": "(centres undefined)", "inhibition": "inactive: -5.08%"}
{"smiles": "CP(=O)(Nc1ccccn1)Oc1ccc(Cl)cc1", "note": "(centres undefined)", "inhibition": "inactive: 5.6%"}
{"smiles": "Cc1cccc(C)c1OP(C)(=O)Nc1ccc(SC(F)(F)F)cc1", "note": "(centres undefined)", "inhibition": "inactive: 1.83%"}
{"smiles": "CP(=O)(Oc1ccccc1)OC(c1ccccc1)C(F)(F)F", "note": "(centres undefined)", "inhibition": "inactive: 3.13%"}
{"smiles": "CP(=O)(NC(=O)Nc1ccccc1)Oc1ccccc1", "note": "(centres undefined)", "inhibition": "inactive: 22.8%"}
{"smiles": "CCc1ccc(OP(C)(=O)N2CCN(c3ccc([N+](=O)[O-])cc3)CC2)cc1", "note": "(centres undefined)", "inhibition": "inactive: 4.92%"}
{"smiles": "Cc1cc(C)cc(OP(C)(=O)Nc2ccc(SC(F)(F)F)cc2)c1", "note": "(centres undefined)", "inhibition": "inactive: -3.74%"}
{"smiles": "CP(=S)(Nn1cnnc1)Oc1ccccc1", "note": "(centres undefined)", "inhibition": "inactive: -0.65%"}
{"smiles": "CP(=O)(Nc1ccccc1Br)Oc1ccccc1", "note": "(centres undefined)", "inhibition": "inactive: 9.02%"}
{"smiles": "COc1ccccc1OP(C)(=O)Nc1ccccc1", "note": "(centres undefined)", "inhibition": "inactive: -4.89%"}
{"smiles": "COc1ccccc1OP(C)(=O)Nc1ccc(C)cc1", "note": "(centres undefined)", "inhibition": "inactive: 9.73%"}
{"smiles": "Cc1ccc(NP(C)(=O)Oc2ccccc2)c(C)c1", "note": "(centres undefined)", "inhibition": "inactive: 1.25%"}
{"smiles": "CCOC(=O)c1ccc(NP(C)(=O)Oc2ccccc2)cc1", "note": "(centres undefined)", "inhibition": "inactive: 7.67%"}
{"smiles": "Cc1cc(C)cc(OP(C)(N)=O)c1", "note": "(centres undefined)", "inhibition": "inactive: -5.01%"}
{"smiles": "COc1ccccc1OP(C)(=O)Nc1cc(Cl)ccc1C", "note": "(centres undefined)", "inhibition": "inactive: 2.44%"}
{"smiles": "COc1ccc(OP(C)(=O)Nc2cccc(F)c2)cc1", "note": "(centres undefined)", "inhibition": "inactive: 2.38%"}
{"smiles": "O=[N+]([O-])c1cc([N+](=O)[O-])c(Nc2cccnc2)c([N+](=O)[O-])c1", "inhibition": "inactive: 6.67%"}
{"smiles": "O=[N+]([O-])c1ccc2c(c1)C=Nc1ccccc1O2", "inhibition": "inactive: -5.64%"}
{"smiles": "CC(C)(C)c1ccc(OP(C)(=O)Nc2ccc(SC(F)(F)F)cc2)cc1", "note": "(centres undefined)", "inhibition": "inactive: 4.15%"}
{"smiles": "Cc1cccc(C)c1OP(C)(N)=O", "note": "(centres undefined)", "inhibition": "inactive: 5.08%"}
{"smiles": "CCN(CC)CCCOC(=O)C(O)(c1ccccc1)c1ccccc1", "inhibition": "inactive: 6.22%"}
{"smiles": "Cc1ccc(C)c(NP(C)(=O)Oc2ccccc2)c1", "note": "(centres undefined)", "inhibition": "inactive: 2.14%"}
{"smiles": "Cc1cc(C)cc(OP(C)(=O)Nc2ccccn2)c1", "note": "(centres undefined)", "inhibition": "inactive: 7.39%"}
{"smiles": "CP(=O)(Nc1cccc(Br)c1)Oc1ccccc1", "note": "(centres undefined)", "inhibition": "inactive: 4.07%"}
{"smiles": "COc1ccccc1OP(C)(=O)Nc1cccc(Br)c1", "note": "(centres undefined)", "inhibition": "inactive: 5.83%"}
{"smiles": "CCOC(=O)c1ccc(NP(C)(=O)Oc2cc(C)cc(C)c2)cc1", "note": "(centres undefined)", "inhibition": "inactive: 0.62%"}
{"smiles": "Cc1cc(C)cc(OP(C)(=O)Nc2ccc(C)cc2C)c1", "note": "(centres undefined)", "inhibition": "inactive: 15.1%"}
{"smiles": "CC1=NCCc2c1[nH]c1ccccc21.O=[N+]([O-])c1cc([N+](=O)[O-])c(O)c([N+](=O)[O-])c1", "inhibition": "inactive: 3.99%"}
